# Target: human TRPV1 receptor (hTRPV1) (Homo sapiens (Human), UniProt Q8NER1)
# By UniProt entry, the sequences of proteins in these tests, tags left out.
# UniProt Q8NER1, whole entry: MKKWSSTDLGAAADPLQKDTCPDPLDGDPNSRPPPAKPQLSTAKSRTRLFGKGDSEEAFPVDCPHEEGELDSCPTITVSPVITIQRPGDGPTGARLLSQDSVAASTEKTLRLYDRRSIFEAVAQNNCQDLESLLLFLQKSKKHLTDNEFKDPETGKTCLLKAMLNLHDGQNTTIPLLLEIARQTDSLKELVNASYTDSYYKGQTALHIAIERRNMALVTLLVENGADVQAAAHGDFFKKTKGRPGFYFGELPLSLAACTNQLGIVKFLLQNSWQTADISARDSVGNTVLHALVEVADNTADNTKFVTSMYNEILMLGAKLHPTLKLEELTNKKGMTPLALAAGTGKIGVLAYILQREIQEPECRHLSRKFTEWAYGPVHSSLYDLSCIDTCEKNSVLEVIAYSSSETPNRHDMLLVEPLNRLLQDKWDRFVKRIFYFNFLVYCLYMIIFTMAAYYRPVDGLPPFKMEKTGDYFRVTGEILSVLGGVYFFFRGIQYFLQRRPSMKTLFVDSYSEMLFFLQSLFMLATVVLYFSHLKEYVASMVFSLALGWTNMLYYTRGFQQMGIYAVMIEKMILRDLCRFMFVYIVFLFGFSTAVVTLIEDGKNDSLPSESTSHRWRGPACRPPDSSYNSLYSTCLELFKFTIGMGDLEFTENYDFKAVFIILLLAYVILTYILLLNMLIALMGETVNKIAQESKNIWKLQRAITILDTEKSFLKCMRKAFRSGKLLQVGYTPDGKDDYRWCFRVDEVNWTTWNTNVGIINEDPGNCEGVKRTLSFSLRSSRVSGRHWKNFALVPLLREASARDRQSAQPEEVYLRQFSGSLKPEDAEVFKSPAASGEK
# Assay: Capsaicin activation assay (FLIPR intracellular Ca2+)
# Format: cell-based
# Details: Table 1; inhibition of capsaicin-induced intracellular Ca2+ increase, HEK293 cells expressing human TRPV1; read-out: hTRPV1 cap IC50
# Method: Dulbecco's modified Eagle medium (D-MEM) (with 4.5 mg/mL glucose) and fetal bovine serum were obtained from Hyclone Laboratories, Inc. (Logan, Utah). Dulbecco's phosphate-buffered saline (D-PBS) (with 1 mg/mL glucose and 3.6 mg/l Na pyruvate, without phenol red), L-glutamine, hygromycin B, and Lipofectamine® were obtained from Life Technologies (Grand Island, N.Y.). G418 sulfate was obtained from Calbiochem-Novabiochem Corp. (San Diego, Calif.). Capsaicin (8-methyl-N-vanillyl-6-nonenamide) was obtained from Sigma-Aldrich, Co. (St. Louis, Mo.). Fluo-4 AM (N-[4-[6-[(acetyloxy)methoxy]-2,7-difluoro-3-oxo-3H-xanthen-9-yl]-2-[2-[2-[bis[2-[(acetyloxy)methoxy]-2-oxyethyl]amino]-5-methyl phenoxy]ethoxy]phenyl]-N-[2-[(acetyloxy)methoxy]-2-oxyethyl]-glycine, (acetyloxy)methyl ester) was purchased from Molecular Probes (Eugene, Oreg.). […]
# The functional activity of compounds at the TRPV1 receptor was determined by measurement of intracellular Ca^2+ levels ([Ca^2+]i) using the Fluorescence Imaging Plate Reader (FLIPR)^TETRA®. All compounds were tested over a 12-point one-third-log concentration range. Compound stocks, 10 mM, were prepared in DMSO, and diluted serially across a 384-well plate using a Bravo BenchCel workstation (Agilent Technologies, Santa Clara, Calif.). A stock concentration of capsaicin (10 mM) was made in DMSO, and diluted in D-PBS to a final concentration of 200 nM (4×). On the day prior to the experiment, recombinant HEK293 cells that stably express human TRPV1 were removed from tissue culture flasks and plated in growth medium into black-walled clear-bottom 384-well Biocoat™ poly-D-lysine assay plates (BD Biosciences, Bedford, Mass.) using a Multidrop® dispenser (ThermoScientific, Waltham, Mass.). On the day of the experiment, growth medium was removed, and the no-wash FLIPR® Calcium-4 dye (λEX=470-495 nm, λEM=515-575 nm; Molecular Devices, Sunnyvale, Calif.) was added to each well using the Multidrop® dispenser. Cells were incubated for 90-120 minutes in the dark at room temperature. Test compounds were added to the cells 3 minutes prior to the addition of 200 nM capsaicin (4×), and the final assay volume was 80 μL. Fluorescence readings were made at 1 to 5 second intervals over the course of the experimental run. The peak increase in relative fluorescence units (minus baseline) was calculated, and expressed as a percentage of the 50 nM capsaicin (control) response.
row,IC50 [nM],Compound
1,997,"Cc1cnc([C@@H]2CC[C@H](NC(=O)Nc3cccc4[nH]ncc34)C2)o1 (stereo in doubt) [Example 126, 1-(1H-indazol-4-yl)-3-[(1S*,3R*)-3-(5-methyl-1,3-oxazol-2-yl)cyclopentyl]urea]"
2,5760,"Cc1cc2c(NC(=O)N[C@@H]3CC[C@H](c4ncc(C)o4)C3)c(F)ccc2cn1 (stereo in doubt) [Example 127, 1-(6-fluoro-3-methylisoquinolin-5-yl)-3-[(1R*,3S*)-3-(5-methyl-1,3-oxazol-2-yl)cyclopentyl]urea]"
3,8640,"Cc1cnc([C@H]2CC[C@@H](NC(=O)Nc3cccc4[nH]ncc34)C2)o1 (stereo in doubt) [Example 128, 1-(1H-indazol-4-yl)-3-[(1R*,3S*)-3-(5-methyl-1,3-oxazol-2-yl)cyclopentyl]urea]"
4,133,"O=C(Nc1cccc2[nH]ncc12)N[C@@H]1CCC(c2nc(C(F)(F)F)cs2)C1 (stereo partly drawn) [Example 131, 1-(1H-indazol-4-yl)-3-{(1R)-3-[4-(trifluoromethyl)-1,3-thiazol-2-yl]cyclopentyl}urea]"

# The next lines start with the compound.
row,Compound,IC50 [nM]
1,"O=C(Nc1cccc2[nH]ncc12)N[C@H]1CC[C@H](c2ccccn2)C1 (racemic) [Example 39, 1-(1H-indazol-4-yl)-3-[trans-3-(pyridin-2-yl)cyclopentyl]urea]",862
2,"O=C(Nc1cccc2[nH]ncc12)N[C@H]1CC[C@@H](c2ccccn2)C1 (relative stereo) [Example 38, 1-(1H-indazol-4-yl)-3-[cis-3-(pyridin-2-yl)cyclopentyl]urea]",499
3,"Cc1csc([C@H]2CC[C@H](NC(=O)Nc3cccc4[nH]ncc34)C2)n1 (relative stereo) [Example 119, 1-(1H-indazol-4-yl)-3-[(trans)-3-(4-methyl-1,3-thiazol-2-yl)cyclopentyl]urea]",720
4,"Cc1cc2c(NC(=O)N[C@H]3CC[C@@H](c4ncc(C)o4)C3)c(F)ccc2cn1 (stereo in doubt) [Example 125, 1-(6-fluoro-3-methylisoquinolin-5-yl)-3-[(1S*,3R*)-3-(5-methyl-1,3-oxazol-2-yl)cyclopentyl]urea]",1460
